Assay results: paper PMC9523135, “Apamin structure and pharmacology revisited” (Frontiers in Pharmacology, 2022)
Values after ≈ are worked out from the molar mass of the structure shown.

Tests used:
Conditions in all cases: lowest concentration causing 100% growth inhibition; 24 h, 37°C; n = 5
[1] = system: S. aureus; test: Antimicrobial assay, microtitre broth dilution, S. aureus; type: cell-based, Staphylococcus aureus subsp. aureus ATCC 29213
Experimental: (§1) Apamin was tested against Gram-positive (Enterococcus faecalis ATCC 29212, Staphylococcus aureus subsp. aureus ATCC 29213) and Gram-negative bacteria (Escherichia coli ATCC 25922, Pseudomonas aeruginosa ATCC 27853) following the previously described modification of the microtitre broth dilution method ([Vassilevski et al., 2010]). Those bacterial strains were also subjected to the treatment by melittin in the same concentration range to serve as a positive control.
(§2) Briefly, bacteria were cultured in a low-salt LB medium. The two-fold microtitre broth dilution assay was carried out in 96-well sterile plates in a final volume of 100 μL. Mid-exponential-phase cultures were diluted to a final concentration of 10^5 colony-forming units·ml^−1. Pure peptides were dissolved in 10 μL of water and added to 90 μL of the bacterial dilution. The samples, a non-treated control and a sterility control were tested in five independent experiments (n = 5). The microtitre plates were incubated for 24 h at 37°C, and growth inhibition was determined by measuring the absorbance at 620 nm. Minimum inhibitory concentration (MIC) is expressed as the lowest concentration of peptide that caused 100% bacterial growth inhibition.

[2] = system: E. coli; test: Antimicrobial assay, microtitre broth dilution, E. coli; type: cell-based, Escherichia coli ATCC 25922
Experimental: as §1, §2

[3] = system: P. aeruginosa; test: Antimicrobial assay, microtitre broth dilution, P. aeruginosa; type: cell-based, Pseudomonas aeruginosa ATCC 27853
Experimental: as §1, §2

SMILES: CC[C@H](C)[C@H](NC(=O)CN)C(=O)NCC(=O)N[C@@H](C)C(=O)N[C@H](C(=O)N[C@@H](CC(C)C)C(=O)N[C@@H](CCCCN)C(=O)N[C@H](C(=O)N[C@@H](CC(C)C)C(=O)N[C@H](C(=O)N[C@H](C(=O)NCC(=O)N[C@@H](CC(C)C)C(=O)N1CCC[C@H]1C(=O)N[C@@H](C)C(=O)N[C@@H](CC(C)C)C(=O)N[C@H](C(=O)N[C@@H](CO)C(=O)N[C@@H](Cc1c[nH]c2ccccc12)C(=O)N[C@H](C(=O)N[C@@H](CCCCN)C(=O)N[C@@H](CCCNC(=N)N)C(=O)N[C@@H](CCCCN)C(=O)N[C@@H](CCCNC(=N)N)C(=O)N[C@@H](CCC(N)=O)C(=O)N[C@@H](CCC(N)=O)C(N)=O)[C@@H](C)CC)[C@@H](C)CC)[C@@H](C)O)[C@@H](C)O)C(C)C)C(C)C [Melittin]
- MIC [1]: 3 µM (≈ 8.54 µg/mL)
- MIC [2]: 1.5 µM (≈ 4.27 µg/mL)
- MIC [3]: 6 µM (≈ 17.1 µg/mL)
